Experimental data: ChEMBL document CHEMBL6083290, “Proline Analogues in Drug Design: Current Trends and Future Prospects” (J Med Chem, 2024)

Chains of the proteins cited; added tags and fusions are not shown. Lines headed by an entry give the natural chain unless they say otherwise; changes in a name come on top.
UniProt P14780: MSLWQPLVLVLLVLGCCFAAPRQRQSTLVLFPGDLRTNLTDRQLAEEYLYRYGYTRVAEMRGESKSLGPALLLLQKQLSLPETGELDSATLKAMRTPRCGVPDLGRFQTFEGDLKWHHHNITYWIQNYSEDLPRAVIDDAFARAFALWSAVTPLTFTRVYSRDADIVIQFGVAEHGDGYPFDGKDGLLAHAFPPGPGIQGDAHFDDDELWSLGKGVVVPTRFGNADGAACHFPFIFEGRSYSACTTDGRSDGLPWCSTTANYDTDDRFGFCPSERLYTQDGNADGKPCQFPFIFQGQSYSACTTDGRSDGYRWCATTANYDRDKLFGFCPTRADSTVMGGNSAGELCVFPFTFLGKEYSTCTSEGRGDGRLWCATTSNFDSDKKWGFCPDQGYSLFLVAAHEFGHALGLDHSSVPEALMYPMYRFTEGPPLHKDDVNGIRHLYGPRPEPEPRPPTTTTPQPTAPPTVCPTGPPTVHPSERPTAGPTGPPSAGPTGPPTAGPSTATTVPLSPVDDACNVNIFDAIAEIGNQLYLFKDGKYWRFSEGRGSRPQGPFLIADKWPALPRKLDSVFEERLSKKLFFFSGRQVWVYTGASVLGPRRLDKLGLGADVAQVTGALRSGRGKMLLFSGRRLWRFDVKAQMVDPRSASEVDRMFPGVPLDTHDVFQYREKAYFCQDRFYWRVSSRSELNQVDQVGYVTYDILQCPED

Target: Matrix metalloproteinase-9 (Homo sapiens) (UniProt P14780)

`COc1ccc(C(=O)N[C@@H]2C[C@H](C(=O)NO)N(S(=O)(=O)c3ccc(Cl)c(Cl)c3)C2)c(OC)c1` was tested, and the IC5 was 0.56 µM.
